Reference: patent US7781642B2, “Animal model having a chimeric human liver and susceptible to human hepatitis C virus infection” (KMT Hepatech, Inc., priority 2000, dated 2010)

What was measured:
HCV (genotype 3) = test: Interferon alpha-2b treatment of HCV-infected Scid/uPA mice with chimeric human liver; serum HCV titre by RT-PCR; type: in vivo, mouse; conditions: all 3 treated animals (135 or 1350 IU/g/d)
From the text: Animals: Human hepatocytes were isolated from pieces of human liver tissue obtained from the operating theater using continuous perfusion with collagenase (Liberase HI, Boehringer Mannheim). Homozygote SCID/uPA mice were transplanted with 0.5×10^6 to 1.0×10^6 fresh human hepatocytes via intrasplenic injection at 10-15 days of age. At 4 weeks post-transplant blood was drawn and assayed for human albumin (HA) concentration using a quantitative dot blot assay.
HCV infection: At 8 weeks post-transplant, mice were injected intraperitoneally with 50 μl of serum from a HCV positive liver transplant patient, genotype 3. The serum was stored at −70 degrees Celsius and thawed out at time of inoculation. […] All HCV quantitation was performed by the Provincial Laboratory at the University of Alberta Hospital using the Cobas Amplicor HCV Monitor version 2.0 (Roche Diagnostics).
Interferon administration: The mice were divided into 3 treatment groups: group 1=controls (n=5), group 2=interferon-α2b (IFN) 135 IU/g/d (n=1), group 3=1350 IU/g/d (n=2). Treatment was started 2 weeks after HCV inoculation. The IFN (or an equivalent volume of normal saline) was injected IM for 15 consecutive days. Blood was drawn to assay for HCV RNA levels and graft function at the start of treatment, at the end of treatment, and 2 and 4 weeks after treatment had stopped. […]

HCV = conditions: anti-HCV therapy in humans; cited from earlier work

interferon alpha-2b [IFN]
Course of viral titres in treated animals (HCV (genotype 3)): decreasing viral titres

interferon-α
Time of therapy after which the effect is detectable (HCV): about 12 weeks
